Reference: patent publication US9856499B2, “Long chain organic acid bioproduction” (dated 2018)
Read-outs that look alike come from different tables or passages of the source.

Key:
[1] = test system: Clostridium acetobutylicum; assay: Effect of electron carrier dyes on the pattern of metabolites
[2] = cited from earlier work

| Molecule | effect on butyrate versus acetate production / metabolite profile [1] | redox potential ([2]; midpoint potential from the standard hydrogen electrode at pH 7) [V] | redox potential ([2]; no unit) | ratio of butyrate to acetate ([1]; 50 uM, CGM medium, 50 hours) |
| --- | --- | --- | --- | --- |
| CN(C)c1ccc2nc3ccc(=[N+](C)C)cc-3sc2c1 | do not show the same effect | – | – | – |
| methyl viologen | do not show the same effect | – | – | – |
| O=C(O)c1cccc2nc3ccccc3nc12 | – | −0.116 | −0.113 | much higher ratio of butyrate to acetate |
